# Sfp inh = blocks B. subtilis Sfp PPTase activity | Q9F4F7 | hit rate 3.5% among 310,000 | Potency, µM, without a hit: max response, negative = inhibition, most hits filed as inhibitors | AID 1490 | Biochemical Sfp PPTase activity, qHTS; active means well fitted inhibition curve with a large enough effect; inconclusive means small, poorly fitted or top-dose-only effect, or another doubt; inactive means no such curve, though single readings can be large or run the other way;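 further: the enzyme is Sfp with the accession as filed and its product quenches rhodamine fluorescence; potency means the concentration at half of the fitted maximal effect; 0% = enzyme reaction without inhibitor and -100% = no enzyme wells; top concentration of the series not given in the record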
#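 With Hepes-Na pH 7.6 buffer containing 10 mM MgCl2, Sfp (15 nM) modified BHQ-2-YbbR (12.5 uM) using rhodamine-CoA (5 uM). Two reads 30 minutes apart at 525/598 nm yielded each well's rate.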
# Lamin A splicing = changes lamin A minigene splicing in HeLa cells; AID 1487; 200,000 tested, 0.01% active; HeLa LMNA splicing GFP/RFP minigene ratio, 48 h; Potency, µM (top dose mostly 46.1 µM), for inactives: at the top dose ratio change, negative = inhibition, actives largely listed as inhibitors; active = well fitted inhibition curve with a large enough effect in the signal ratio, with a control signal flat, not every such curve was filed as active; inconclusive = small, poorly fitted or top-dose-only effect, or effect the other way, or a change in a side signal; the % refers to the signal ratio; also: potency is read from the fitted curve at half-maximal effect; % is scaled to controls: 0 for no effect and ±100 for the full control effect
#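 S3 HeLa cells stably expressing lamin A-EGFP splicing minigene plus DsRed2, 600 cells/well, 48 h compound exposure at 37C. Laser-scanning cytometry; analysed as GFP (500-530 nm)/RFP (575-640 nm) total intensity ratio; 0.5% DMSO vehicle.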
# G9a block = blocks human histone lysine methyltransferase G9a; 350,000 tested, 8.8% active; G9a H3K9 monomethylation, AlphaScreen, 2 h; Potency, µM (doses to about 102 µM), for the others: top-dose activity, negative = inhibition, actives largely listed as inhibitors; also: potency is read from the fitted curve at half-maximal effect; % is scaled to controls: 0 for no effect and ±100 for the full control effect; nearly all actives have a fitted effect of over 75% in size
#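 Methyltransferase reactions run at room temperature for 2 h (20 nM enzyme, 500 nM biotin-H3K9 peptide, 20 uM SAM) after a 15 min compound preincubation; product detected by AlphaScreen beads and anti-H3K9me1 antibody.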
# miR-21 reporter = raises the signal of a miR-21 reporter; HeLa miR-21 FLuc reporter, luciferase, 48 h; Potency, µM (top dose mostly 38.3 µM), for inactives: at the highest dose reporter change, positive = more light; AID 2288; 340,000 tested, under 10 active; active = well fitted rising curve with a large enough effect; inconclusive = small, poorly fitted or top-dose-only effect; inactive = no such curve, though single readings can be large or run the other way;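 note: % of control where 0% means no effect; miR-21 action dims this reporter so a rising signal means less miR-21 action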
#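 Luminescence from a firefly luciferase reporter carrying a miR-21 binding site downstream, stably expressed under a CMV promoter in HeLa cells that make miR-21 endogenously, reports miRNA modulation after 48 h compound exposure up to approximately 40uM final.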
# KDM4E inh = JMJD2E (human) inhibition; 230,000 tested, 1.6% active; JMJD2E catalytic domain, FDH-coupled NADH fluorescence (FDH is formaldehyde dehydrogenase); Potency, µM (titrated, usually from 57.1 µM), for inactives: top-dose activity change, negative = inhibition, actives largely listed as inhibitors; B2RXH2; active = well fitted inhibition curve with a large enough effect, not every such curve was filed as active; inconclusive = small, poorly fitted or top-dose-only effect, or another doubt; inactive = no such curve, though single readings can be large or run the other way;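 also: potency is read from the fitted curve at half-maximal effect; 0% = wells with enzyme and -100% = buffer wells without enzyme; nearly all actives have a fitted effect of over 50% in size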
# ALDH1A1 inh = blocks purified human ALDH1A1 activity | Purified ALDH1A1, NADH fluorescence, propionaldehyde substrate | 220,000 tested, 7.3% active | P00352 | Potency, µM (top dose mostly 75.3 µM), for the others: top-dose activity, negative = inhibition, hits mostly inhibitors; active = well fitted inhibition curve with a large enough effect, not every such curve was filed as active; inconclusive = small, poorly fitted or top-dose-only effect, or another doubt; inactive = no such curve, though single readings can be large or run the other way;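 also: potency is read from the fitted curve at half-maximal effect; plate controls were no enzyme wells and a reference inhibitor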
# Active calls of the source: *; ? = inconclusive; / = no result given; [ ] = dose if it differs, or a comment. The list is not random: actives were taken first. Their share in the collection is about 13%. Unless noted, calls follow the shape of the dose curve; as a rule, active = well fitted curve in the direction sought with a large enough effect; inconclusive = small, poorly fitted or top-dose-only effect, or another doubt; inactive = no such curve, though single readings can be large; an effect the other way counts as inactive or inconclusive.
SMILES,Sfp inh,Lamin A splicing,G9a block,miR-21 reporter,KDM4E inh,ALDH1A1 inh
O=C(CSc1nc2c(c(=O)[nH]1)CN(Cc1ccc3c(c1)OCO3)CC2)Nc1ccccc1Cl,/,/,-28%[59 µM],-5%,/,/
CC1CCCCC1NS(=O)(=O)c1ccc(S(=O)(=O)NCc2ccncc2)cc1 (stereo not drawn),4%,?,18µM*,14%,4%,-3%
O=c1c(C=Nc2cccc(C(F)(F)F)c2)c[nH]n1-c1cccc(Cl)n1,0%,8%,50µM*,-2%,3%,4%
COC(=O)c1ccc(Sc2ccccc2NS(=O)(=O)c2ccc(NC(C)=O)cc2)nc1,7%,-10%,-40%[59 µM],0%,2%,11µM*
O=C(c1ccc2oc(CCc3ccccc3)nc2c1)N1CC[C@H](O)C1,5%,/,85%,-50%,/,/
Cc1ccc(/C=C/C(=O)Nc2cc(S(N)(=O)=O)ccc2O)cc1,28µM*,6%[46 µM],8.9µM*,-14%,-21%,?
COc1ccc(CNc2nc3ccccc3n2C)c(OC)c1,?,/,11%,-43%,9%,8%
CCOc1ccc(-c2cnc(NCc3ccc(OC)cc3OC)n2C)cc1,/,/,16µM*,4%,/,/
COc1ccc(OC)c(CNc2ncc(-c3ccc(Cl)cc3)n2C)c1,/,/,4µM*,0%,/,/
COc1ccc(OC)c(CNc2ncnc3onc(-c4ccc(Cl)cc4)c23)c1,/,/,4%[59 µM],22%,/,/
COc1ccc(CNc2ncc(-c3ccc(Cl)cc3)n2C)c(OC)c1OC,-12%,/,71µM*,5%,/,/
Cc1cc(C)c(S(=O)(=O)Nc2ccc(Cl)cn2)c(C)c1,25%,/,-14%,5%,/,/
COc1ccc(C2CC(c3ccccc3)=NN2C(=O)COC(=O)c2cccnc2)cc1 (stereo not drawn),-17%,-11%,18µM*,-25%,-7%,-8%
COc1ccc(C2=NN(C(=O)CCC(=O)O)C(c3ccc([N+](=O)[O-])cc3)C2)cc1 (stereo not drawn),8%,/,40µM*,-7%,/,/
COc1ccc(C2CC(c3ccc4ccccc4c3)=NN2C(=O)CSc2ncccn2)cc1 (stereo not drawn),-8%,?,40µM*,-23%,?,?
CC(=O)N1N=C(c2ccc([N+](=O)[O-])cc2)CC1c1ccccc1Cl (stereo not drawn),-5%,/,50µM*,14%,/,/
COc1ccc(C2=NN(C(=O)CSc3ncccn3)C(c3ccc(OC)cc3)C2)cc1 (stereo not drawn),-18%,-15%,-10%[59 µM],-3%,?,-7%
CC(=O)N1N=C(c2ccccc2)CC1c1ccccc1[N+](=O)[O-] (stereo not drawn),-10%,?,17%,-16%,5%,-9%
COc1ccc(C2CC(c3ccccc3)=NN2C(=O)COC(=O)c2cccnc2Cl)cc1 (stereo not drawn),5%,?,15%[59 µM],-15%,0%,?
CCOC(=O)Cn1c(=O)n(-c2ccc(Cl)cc2)c2nc(-c3ccc(Cl)cc3)nc(C(N)=O)c21,/,-15%[46 µM],0%[59 µM],-1%,/,/

# Continued (3 carried over from the part before).
SMILES,Sfp inh,Lamin A splicing,G9a block,miR-21 reporter,KDM4E inh,ALDH1A1 inh
CC(=O)N1N=C(c2ccccc2)CC1c1ccccc1[N+](=O)[O-] (stereo not drawn),-10%,?,17%,-16%,5%,-9%
COc1ccc(C2CC(c3ccccc3)=NN2C(=O)COC(=O)c2cccnc2Cl)cc1 (stereo not drawn),5%,?,15%[59 µM],-15%,0%,?
CCOC(=O)Cn1c(=O)n(-c2ccc(Cl)cc2)c2nc(-c3ccc(Cl)cc3)nc(C(N)=O)c21,/,-15%[46 µM],0%[59 µM],-1%,/,/
CC(=O)N1CCc2c(sc3c2c(=O)n(-c2cc(Cl)ccc2C)c(=O)n3Cc2ccccc2F)C1,/,/,3%[59 µM],?,/,/
CC1CCc2c(sc(NC(=O)Cn3cnc([N+](=O)[O-])n3)c2C(N)=O)C1 (stereo not drawn),9%,12%[46 µM],-26%,-2%,-7%,-3%
CCOC(=O)c1c(NC(=O)Cn2cnc3scc(-c4ccc(C)cc4)c3c2=O)sc(C)c1C,-26%,-14%,-3%[59 µM],0%,1%,14µM*
CCOC(=O)c1c(NC(=O)Cn2cnc([N+](=O)[O-])n2)sc(C)c1C,6%,/,28µM*,-3%,-3%,32µM*
CCOC(=O)c1c(NC(=O)Cn2cnc([N+](=O)[O-])n2)sc2c1CCCC2,-28%,?,45µM*,-2%,8%,?
COC(=O)c1c(NC(=O)Cn2nc(C(F)F)cc2C(F)F)sc(C)c1C,56µM*,10%,/,0%,-18%,11µM*
CCOC(=O)c1c(NC(=O)Cn2nc(C(F)F)cc2C(F)F)sc(C)c1C,15%,5%,?,0%,-11%,?
Nc1nc2c(ncn2C2OC(COC(=O)c3ccccc3)C(OC(=O)c3ccccc3)C2OC(=O)c2ccccc2)c(=O)[nH]1 (stereo not drawn),-22%,?,/,/,-4%,2%
CC(C)c1ccc(N2C(=NC(=O)C3CC3)SC3CS(=O)(=O)CC32)cc1 (stereo not drawn),9%,/,6%,-1%,/,/
CCCCOC(=O)c1ccc(NC(=O)c2cnc3ccc(C)cn3c2=O)cc1,/,/,-4%[59 µM],-1%,/,/
NC(=O)c1c(NC(=O)Cn2cnc([N+](=O)[O-])n2)sc2c1CCCC2,7%,/,?,4%,-3%,/
CC(C)OC(=O)c1c(NC(=O)Cn2cnc([N+](=O)[O-])n2)sc2c1CCCC2,-8%,-6%,16µM*,-4%,3%,13µM*
O=C(O)c1ccc(Sc2nnc(-c3cccc(Br)c3)o2)c([N+](=O)[O-])c1,0%,?,50µM*,-2%,2%,15%
Cn1c(Sc2ccc(C(=O)O)cc2[N+](=O)[O-])nnc1-c1ccccc1,10%,-4%[46 µM],1%[59 µM],5%,-7%,7%
Cc1ccc(CNC(=O)CNC(=S)N(Cc2ccccc2)Cc2cccnc2)cc1,12%,/,-47%,7%,-1%,?
Cc1ccc(CN(Cc2ccccc2)C(=S)NCC(=O)NCc2cccnc2)o1,25µM*,6%[46 µM],28µM*,3%,-1%,?
Cc1ccc(CN(Cc2ccco2)C(=S)NCC(=O)O)cc1,-20%,-2%,32µM*,0%,-3%,-7%
Cc1ccc(CN(Cc2ccco2)C(=S)NCC(=O)NCc2cccnc2)cc1,22µM*,/,13µM*,1%,-1%,?
COc1cc(OC)c(NC(=O)CSc2cc(=O)n(C)c3ccc(Cl)cc23)cc1Cl,/,/,2%[59 µM],6%,/,/
CCN(CC)CC(=O)Nc1ccc(C)cc1Br,21%,13%,-13%[59 µM],-10%,-2%,13µM*
COc1ccccc1OC(C)C(=O)Nc1ccc(-c2nc3ccccc3s2)cc1 (stereo not drawn),/,12%[46 µM],0%[59 µM],-53%,/,/
CCCN(Cc1nnc(-c2ccccc2Cl)o1)C(=O)c1cc([N+](=O)[O-])cc([N+](=O)[O-])c1,5%,-3%[9.22 µM],50µM*,-8%,-2%,?
COc1ccccc1N(O)C1CC(=O)N(c2ccc(F)cc2)C1=O (stereo not drawn),?,-10%,?,-6%,?,1.3µM*

# Copied from the list.
# `Nc1nc2c(ncn2C2OC(COC(=O)c3ccccc3)C(OC(=O)c3ccccc3)C2OC(=O)c2ccccc2)c(=O)[nH]1` (stereo not drawn) in ALDH1A1 inh shows 2%
# `CC(C)OC(=O)c1c(NC(=O)Cn2cnc([N+](=O)[O-])n2)sc2c1CCCC2` in miR-21 reporter shows -4%
# `CCOC(=O)c1c(NC(=O)Cn2cnc([N+](=O)[O-])n2)sc(C)c1C` in G9a block shows 28µM*
# `NC(=O)c1c(NC(=O)Cn2cnc([N+](=O)[O-])n2)sc2c1CCCC2` in KDM4E inh shows -3%

# Screens (PubChem BioAssay)
